Experimental data reported in patent publication US7163918B2, “Iodothyronine compositions” (New River Pharmaceuticals Inc., priority 2000, dated 2007).

Amino acid sequences for entries named in this document (tags omitted). Residues count along the entry.
UniProt P00791, 60-385: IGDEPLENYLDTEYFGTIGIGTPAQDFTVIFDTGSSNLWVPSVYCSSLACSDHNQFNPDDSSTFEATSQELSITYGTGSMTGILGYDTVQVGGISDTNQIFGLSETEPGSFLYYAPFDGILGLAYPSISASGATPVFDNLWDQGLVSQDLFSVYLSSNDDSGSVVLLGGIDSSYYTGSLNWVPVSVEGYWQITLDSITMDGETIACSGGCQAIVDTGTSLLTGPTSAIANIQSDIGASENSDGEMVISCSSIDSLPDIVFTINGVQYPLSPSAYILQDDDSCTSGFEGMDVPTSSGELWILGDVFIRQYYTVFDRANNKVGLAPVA

Target: pepsin (EC 3.4.23.1; from porcine stomach mucosa) (Sus scrofa, UniProt P00791)
Assay: Enzymatic release of T3 or T4 by pepsin in Gastric Simulator (GS) buffer
Conditions: Table 1; 37° C., 4 hours

Going from CCCCCCCC(=O)N[C@@H](Cc1cc(I)c(Oc2ccc(OC(=O)CCCCCCC)c(I)c2)c(I)c1)C(=O)O [C8T3(C8), N-Octanoyl-L-triiodothyronine(O-octanoyl)] to CCCCCCCCCCCCCCCC(=O)Oc1ccc(Oc2c(I)cc(CC(N)C(=O)O)cc2I)cc1I.O=C(O)C(F)(F)F (stereo not drawn) [T3C16, Trioodothyronine Hexadeconoate—TFA], the “enzymatic release of T3, Pepsin” value rises from 0.9 to 1.0.

For “mPEG-Amine-Triiodothyronine [mPEG-Amine-T3]”, the “enzymatic release of T3, Pepsin” value was 0.0.
